Assay results as given in patent US12168763B2, “Microorganisms and methods for reducing bacterial contamination” (Melio Peptide Systems Inc., priority 2020, dated 2024).

System: L. fermentum NCCB 46038
Assay: Soft-agar overlay screen of peptide-expressing yeast (BY4742)

## Pediocin PA-1 from [Pediococcus acidilactici]
  Inhibition, L. fermentum NCCB 46038: −
